From US8846903B2, “Acyl-urea derivatives and uses thereof” (Yissum Research Development Company of the Hebrew …, priority 2007, dated 2014)

System: Sprague Dawley rats
Assay: Pilocarpine-induced status epilepticus (SE) protection assay in rats
Conditions: for Average weight change: ± S.E.M.
[1] = 18.75 mg/kg i.p., 0 hours after first stage III seizure
[2] = 37.5 mg/kg i.p., 0 hours after first stage III seizure
[3] = 37.5 mg/kg i.p., 0.25 hours after first stage III seizure
[4] = 50 mg/kg i.p., 0 hours after first stage III seizure
[5] = 75 mg/kg i.p., 0 hours after first stage III seizure
[6] = 75 mg/kg i.p., 0.25 hours after first stage III seizure
[7] = 75 mg/kg i.p., 0.5 hours after first stage III seizure
[8] = 100 mg/kg i.p., 0 hours after first stage III seizure
[9] = 100 mg/kg i.p., 0.25 hours after first stage III seizure
[10] = 112.5 mg/kg i.p., 0.5 hours after first stage III seizure
[11] = 150 mg/kg i.p., 0.5 hours after first stage III seizure
[12] = 200 mg/kg i.p., 30 hours after first stage III seizure

## CC[C@@H](C)[C@@H](CC)C(=O)NC(N)=O (racemic) [Compound 4, 1-(2-ethyl-3-methyl-pentanoyl)-urea]
[1]
  Died: 0
  Prot./Tested: 3/7
  Average weight change: −7.9 ± 6.5 grams
[2]
  Comments: Sedated
  Died: 0
  Prot./Tested: 6/8
  Average weight change: +8.8 ± 5.4 grams
[3]
  Died: 0
  Prot./Tested: 9/15
  Average weight change: −13.3 ± 3.4 grams
[4]
  Died: 1
  Prot./Tested: 4/8
  Average weight change: −3.6 ± 6.5 grams
[5]
  Comments: Sedated
  Died: 0
  Average weight change: +15.6 ± 2.2 grams
[6]
  Comments: Sedated
  Died: 0
  Average weight change: −3.1 ± 6.2 grams
[7]
  Comment: Sedated
  Died: 2
  Prot./Tested: 4/8
  Average weight change: −14.2 ± 1.3 grams
[8]
  Died: 0
  Prot./Tested: 8/8
  Average weight change: +9.4 ± 1.1 grams
[9]
  Died: 0
  Prot./Tested: 1/8
  Average weight change: −17.5 ± 2.5 grams
[10]
  Comment: Sedated
  Died: 0
  Prot./Tested: 6/8
  Average weight change: −23.1 ± 3.2 grams
[11]
  Comment: Sedated
  Died: 1
  Prot./Tested: 6/8
  Average weight change: −21.4 ± 2.4 grams
[12]
  Died: 1
  Prot./Tested: 2/6
  Average weight change: −18.0 ± 1.6 grams
i.p., pilocarpine model, TPE 0 hours
  ED50 Values, Dose: 22.73 mg/kg
